Patent US20070059731A1

Chains of the proteins cited; added tags and fusions are not shown. Residues count along the entry.
UniProt P05412, 257-318: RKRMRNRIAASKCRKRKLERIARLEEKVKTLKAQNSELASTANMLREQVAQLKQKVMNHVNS

Biological target: bJun-CC (UniProt P05412)
Assay: cell-based or functional assay

level of ubiquitination detected by Western blot analysis of cell extracts, relative to full length Jun: 10 fold lower
Substance: YN-Ub (from UniProt P0CG47 1-76)
